Results published in paper PMC5748754, “Elucidating the Skin Delivery of Aglycone and Glycoside Flavonoids: How the Structures Affect Cutaneous Absorption” (Nutrients, 2017).

Columns and labels:
[1] = Capacity factor (log K') by HPLC; format: physicochemical; conditions: HPLC C18, methanol/pH 2 phosphate buffer 1:1
Description: The HPLC setup for the calculation of log K’ was an HPLC system (7-series, Hitachi, Tokyo, Japan) with a LiChrospher® C18 column (200 × 4.6 mm, Merck, Darmstadt, Germany). The mobile phase consisted of a mixture of methanol and pH 2 phosphate buffer solution (1:1). The flow rate and wavelength for determination were 1 mL/min (L-7110 pump) and 256 nm (L-7455 diode array detector), respectively. The retention times of flavonoids were detected, and the log K’ was computed as log [(tr − t0)/t0], where tr and t0 were the retention time of the flavonoid and the nonretained solvent peak, respectively.

[2] = Partition coefficient (log P), n-octanol/water; format: physicochemical; conditions: 37 °C, 24 h
Description: Flavonoids in methanol (0.5 mg/mL) were pipetted into a tube at a volume of 1 mL. Methanol was then evaporated under vacuum. In the amount of 1 mL of each, n-Octanol and water were incorporated into the tube. After being shaken for 24 h at 37 °C, the tube was centrifugated at 10,000× g for 10 min. The flavonoid content in both phases was analyzed by HPLC. The log P was calculated as log (flavonoid content in n-octanol/flavonoid content in water).

Substance	log K’ [1]	log P [2]
Kaempferol	0.65	3.71 ± 0.57
Naringenin	0.51	3.21 ± 0.04
Naringin	0.19	0.15 ± 0.04
Quercetin	0.51	3.32 ± 0.09
